This is an account of results in paper PMC3490489 (Clinical cancer research : an official journal of the …, 2012).

The format of this data set is in vivo, human.

Where two headings read alike, the source gives them in different places.

Consider `CNC(=O)c1cc(Oc2ccc(NC(=O)Nc3ccc(Cl)c(C(F)(F)F)c3)cc2)ccn1` [sorafenib, reference compound], for which the “Mean CL/F” value was determined as 60±28 mL/min/m^2 (females) and 67±43 mL/min/m^2 (males). The same compound displayed a concentration at 7 day (human, plasma, oral, 150 mg/m^2 twice daily) of 7100 ng/mL. In addition, the “Mean sorafenib steady-state concentration” value (sorafenib 200 mg/m^2 twice daily, 24 patients) turned out to be 5.1 mg/L.
